One compound from patent publication US7951954B2, “Bezothiazol derivatives as Beta2 adrenoreceptor agonists” (AstraZeneca AB, priority 2006, dated 2011) can be followed below.

For this experiment, the target named is T1, Adrenergic β2 (Homo sapiens, UniProt P07550).
T1 construct: endogenous in cells; host or cells: H292 cells
Briefly: Adrenergic β2 mediated cAMP production in H292 cells (AlphaScreen cAMP detection). It is filed as cell-based. In general terms: Changes in cAMP serve as a functional read-out for many G protein-coupled receptors.

Structures can show the parent of a compound that is named as a salt.

Take `O=c1[nH]c2c(O)ccc([C@@H](O)CNCCc3cccc(-c4cccc(CNCc5ccccc5)c4)c3)c2s1` [Example 29, 7-(2-{2-[3′-(Benzylamino-methyl)-biphenyl-3-yl]-ethylamino}-1R-hydroxy-ethyl)-4-hydroxy-3H-benzothiazol-2-one bis-trifluoroacetate salt]: the “Intrinsic Activity” value worked out at 0.8.
